Amino acid sequences for entries named in this document (tags omitted). Residues count along the entry.
UniProt P27958, 1027-1657: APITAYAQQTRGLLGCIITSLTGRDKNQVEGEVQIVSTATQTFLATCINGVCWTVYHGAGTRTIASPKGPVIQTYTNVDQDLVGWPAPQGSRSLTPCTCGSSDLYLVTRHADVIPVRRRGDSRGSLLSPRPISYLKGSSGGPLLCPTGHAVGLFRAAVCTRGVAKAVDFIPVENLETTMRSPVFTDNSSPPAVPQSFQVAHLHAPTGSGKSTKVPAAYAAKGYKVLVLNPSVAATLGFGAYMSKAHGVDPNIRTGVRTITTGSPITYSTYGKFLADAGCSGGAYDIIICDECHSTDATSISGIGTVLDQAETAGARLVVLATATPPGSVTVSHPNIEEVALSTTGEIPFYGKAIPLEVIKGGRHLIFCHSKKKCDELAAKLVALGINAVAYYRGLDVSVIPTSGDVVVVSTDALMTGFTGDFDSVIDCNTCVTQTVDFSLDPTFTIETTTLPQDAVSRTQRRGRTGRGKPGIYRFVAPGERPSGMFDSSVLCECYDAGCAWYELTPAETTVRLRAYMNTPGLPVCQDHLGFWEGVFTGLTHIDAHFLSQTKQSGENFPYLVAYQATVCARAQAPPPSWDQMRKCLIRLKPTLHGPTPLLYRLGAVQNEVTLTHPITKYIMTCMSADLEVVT
UniProt P27958, 1658-1711: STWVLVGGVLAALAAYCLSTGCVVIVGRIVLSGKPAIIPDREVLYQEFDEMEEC

In patent publication US8067379B2, “Sulfur compounds as inhibitors of hepatitis C virus NS3 serine protease” (Schering Corporation, priority 2004, dated 2011):

Target: Recombinant heterodimeric HCV NS3/NS4A protease (strain 1a) (Hepatitis C virus genotype 1a, UniProt P27958)
Assay: Spectrophotometric assay for HCV serine protease inhibitory activity (chromogenic ester substrates)
Format: biochemical
Settings: Table 3A; class symbols; read-out: Ki* Range

Compound | Ki [nM]
CCC[C@H](NC(=O)[C@@H]1CC2(CN1C(=O)[C@@H](NC(=O)NC1(CS(=O)(=O)C(C)(C)C)CCCCC1)C1(C)CCCCC1)SCCCS2)C(=O)C(=O)NC1CC1 [Compound 812] | < 75
CCCC[C@H](NC(=O)[C@@H]1[C@@H]2[C@H](CN1C(=O)[C@@H](NC(=O)NC1(CS(=O)(=O)C(C)(C)C)CCCCC1)C(C)(C)C)C2(C)C)C(=O)C(=O)NCCC [Compound 883-cj] | < 75
